Assay results reported in patent US20240279249A1, “Compound, Coating Composition Comprising Same, Organic Light-Emitting Device Using Same, and Manufacturing Method Therefor” (LG Chem, Ltd., priority 2021, published 2024).

Assay: Solubility at 5 wt % relative to each solvent
Conditions: 5 wt % relative to solvent
Source text: In a solution process organic light emitting device, when an ink solvent is selected for the process, the ink solvent needs to dissolve both a host and a dopant.

(4-isopropylphenyl) (p-tolyl)iodonium (2,2′,3,3′,5,5′,6,6′-octafluoro-4″-vinyl-[1,1′:4′,1″-terphenyl]-4-yl)tris(2,3,5,6-tetrafluoro-4-(trifluoromethyl)phenyl)borate [Compound 2]
Dissolved: Solubility in Acetone | Solubility in Dichloromethane | Solubility in Toluene

(4-isopropylphenyl) (p-tolyl)iodonium (2,3,5,6-tetrafluoro-4′-vinyl-[1,1′-biphenyl]-4-yl)tris(2,3,5,6-tetrafluoro-4-(trifluoromethyl)phenyl)borate [Compound 1]
Dissolved: Solubility in Acetone | Solubility in Dichloromethane | Solubility in Toluene
